Experiments:
U87 cells = assay: Metabolic profile analysis (LC-MS); settings: octyl α-KG treated samples
[1] = test system: electron transport chain (Complex I, Complex II, Complex IV); assay: Mitochondrial electron flow assay; type: biochemical, mouse
Description: Mitochondria were isolated from mouse liver as described above.
For the electron flow assay, the MAS buffer was supplemented with 10 mM sodium pyruvate (Complex I substrate), 2 mM malate (Complex II inhibitor), and 4 μM FCCP, and the mitochondria are seeded the same way as described for the coupling assay. After basal readings, the sequential injections were as follows: 2 μM rotenone (Complex I inhibitor), 10 mM succinate (Complex II substrate), 4 μM antimycin A (Complex III inhibitor), and 10 mM/100 μM ascorbate/tetramethylphenylenediamine (Complex IV substrate).

Amino acid sequences for entries named in this document (tags omitted). A change or cut given only in a name is not applied to a line headed by its entry.
UniProt P56480: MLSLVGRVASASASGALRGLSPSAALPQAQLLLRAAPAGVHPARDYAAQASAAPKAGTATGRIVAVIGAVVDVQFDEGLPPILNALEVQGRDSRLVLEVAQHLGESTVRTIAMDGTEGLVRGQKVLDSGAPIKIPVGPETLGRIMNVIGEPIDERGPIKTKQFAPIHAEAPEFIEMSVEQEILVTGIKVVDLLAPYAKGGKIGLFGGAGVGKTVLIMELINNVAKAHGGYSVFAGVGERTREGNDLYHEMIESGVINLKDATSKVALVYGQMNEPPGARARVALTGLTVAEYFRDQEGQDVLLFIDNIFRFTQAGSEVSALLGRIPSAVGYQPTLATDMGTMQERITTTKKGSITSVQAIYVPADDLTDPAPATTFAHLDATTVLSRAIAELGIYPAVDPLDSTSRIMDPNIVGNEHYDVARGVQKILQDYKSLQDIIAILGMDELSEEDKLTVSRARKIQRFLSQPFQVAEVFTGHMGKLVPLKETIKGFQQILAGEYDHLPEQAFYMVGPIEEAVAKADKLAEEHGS

HEK-293 cells = settings: 72 hours
DBA2/J female mice = assay: Isoproterenol-induced hypertrophy and heart failure in mice; type: in vivo, mouse; settings: ISO 30 μg/g/day 3 weeks plus octyl α-KG 0.5 mg/g daily in chow; ISO+octanol 7.26±0.12; Mean, STEDV
Description: Hypertrophy and heart failure were induced by chronic infusion of isoproterenol for 3 weeks at a dose of 30 μg per gram bodyweight per day using osmotic mini-pumps (Alzet, model 1004). DBA2/J female mice at 8 weeks old were used for this study. […] ISO-induced cardiac hypertrophy and cardiomyopathy were determined at the end of experiment by assessing heart size and heart to body weight ratio.
More importantly, cardiac output was assessed and the cardiac ejection fractions were determined by echocardiography. The cardiac EF for the basal levels before the treatment is 55.1%±2.6 (n=14).

ATP synthase (Complex V) = biological target: T1, ATP synthase (Complex V) (Mus musculus, UniProt P56480); assay: Mitochondrial coupling assay / respiratory control ratio; type: biochemical; settings: mouse liver mitochondria
T1 construct: Mitochondria were isolated from mouse liver as described above; from tissue; host or cells: isolated mouse liver mitochondria
Description: Mitochondrial RCR was analyzed using isolated mouse liver mitochondria (see Brand, et al. Biochem J 435, 297-312 (2011) and references therein). Mitochondria were isolated from mouse liver as described above. The final mitochondrial pellet was resuspended in 30 μl of MAS buffer (70 mM sucrose, 220 mM mannitol, 10 mM KH2PO4, 5 mM MgCl2, 2 mM HEPES, 1 mM EGTA, and 0.2% fatty acid free BSA, pH 7.2).
Isolated mitochondrial respiration was measured by running coupling and electron flow assays as described (Rogers, et al. PLoS One 6, e21746 (2011)). For the coupling assay, 20 μg of mitochondria in complete MAS buffer (MAS buffer supplemented with 10 mM succinate and 2μM rotenone) were seeded into a XF24 Seahorse plate by centrifugation at 2,000×g for 20 minutes at 4° C. Just before the assay, the mitochondria were supplemented with complete MAS buffer for a total of 500 μl (with 1% DMSO, octanol, octyl α-KG, or octyl 2-HG), and warmed at 37° C. for 30 minutes before starting the oxygen consumption rate measurements. Mitochondrial respiration begins in a coupled State 2; State 3 is initiated by 2 mM ADP; State 4o (oligomycin-insensitive, i.e., Complex V-independent) is induced by 2.5 μM oligomycin and State 3u (FCCP uncoupled maximal respiratory capacity) by 4 μM FCCP. Finally, 1.5 μg/ml antimycin A was injected at the end of the assay. The State 3/State 4o ratio gives the respiratory control ratio (RCR).

Question: CCCCCCCCOC(=O)C(=O)CCC(=O)O [octyl α-KG, octyl α-ketoglutarate] was tested. Which “accumulation of α-KG in metabolic profile” value (U87 cells) did it give?
Answer: Its value is “the most profound change”.

Question: And the “Complex I, Complex II, or Complex IV respiration” value ([1]; 30 minutes treatment, 800 μM)?
Answer: The value was “No difference”.

Question: And the “electron flow assay, 1-octyl versus 5-octyl ester” value ([1]; mouse liver mitochondria)?
Answer: Its value is “identical results”.

Question: What about the “autophagy (MAP1 LC3 Western blot)” value (HEK-293 cells) of the same molecule?
Answer: Its value is “increased”.

Question: And the “heart (mg)/body (g) ratio” value (DBA2/J female mice)?
Answer: Its value is 6.81 ± 0.24 mg/g.

Question: What about the “coupling assay, 1-octyl versus 5-octyl ester” value (ATP synthase (Complex V)) of the same molecule?
Answer: The value was “identical results”.

Question: And the “state 3 respiration” value (ATP synthase (Complex V); 800 μM)?
Answer: Its value is “decreases”.

Question: And the “state 4o or 3u respiration” value (ATP synthase (Complex V); 800 μM, P=0.997)?
Answer: The value was “not”.

Question: And the respiratory control ratio (ATP synthase (Complex V); 800 μM, vehicle 5.2 ±1.0)?
Answer: The respiratory control ratio was 3.1 ±0.6.
